Assay outcomes deposited in PubChem by National Center for Advancing Translational Sciences (NCATS).
Rango dissoc inh: inhibitors of RanGTP-induced Rango-importin beta complex dissociation | Biochemical FRET Rango-importin beta, RanGTP-induced dissociation | Potency, µM (top dose mostly 46.1 µM), for the others: at the highest dose activity change, negative = inhibition | 0.071% of 340,000 active; note: potency is the fitted concentration of half-maximal effect; % of control where 0% means no effect; nearly all actives have a fitted effect of over 45% in size
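Rango/importin beta premix (0.1/0.25 uM final), PBS + 1 mM DTT + 0.02% Tween-20 + 0.1% BSA; cpd 5 min RT; FRET pre-read; + RanGTP-RCC1 (0.6 uM Ran, 2 mM GTP, 0.2 uM RCC1); 45 min RT; FRET post-read, ex 430, em 486/530 nm.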
Rango complex inh: inhibitors of Rango-importin beta complex formation; AID 540263; 0.031% of 340,000 active; Potency, µM (series often up to 92.2 µM), without a hit: at the top dose inhibition of complex formation; Q14974; Rango CFP/YFP FRET sensor + importin beta, 45 min;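 note: potency is the fitted concentration of half-maximal effect; 0% = DMSO wells and 100% = buffer wells lacking importin beta; nearly all actives have a fitted effect of over 15% in size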
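FRET biosensor Rango (snurportin 1 IBB between N-terminal EYFP and C-terminal Cerulean), 50 nM in PBS/1 mM DTT/0.02% Tween-20/0.1% BSA, preincubated 5 min RT with compound; 0.125 microM importin beta added, 45 min RT, CFP/YFP FRET ratio read.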
pAkt inh: inhibitors of Akt phosphorylation; Neuro2A IGF-stimulated pAkt S473 HTRF, 20 min; stronger effect = lower value; activity change, % for hits at 50 µM; 0.32% of 360,000 active; AID 651550; in the data active = activity change below about -80%; inconclusive = mostly about -51% to -80%; note: % is set by controls: 0 for no effect and ±100 for the full control effect
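Neuro2A cells in DMEM with 0.5% FBS, overnight at 37 deg C, given compound at single 50 µM final, then IGF (6 nM final) for 20 min at 37 deg C. Lysed; phospho-Akt Ser473 by HTRF after 24 h, 665/615 ratio.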
p53 reactivation: re-activators of mutant p53; H1299 p53-A138V BP100-luciferase reporter, luminescence, 24 h; Potency, µM (top dose mostly 92.2 µM), for inactives: top-dose activity change, positive = activation, usual class: activators; 0.063% of 320,000 active; active = well fitted activation curve with a large enough effect; inconclusive = small, poorly fitted or top-dose-only effect; inactive = no such curve, though single readings can be large or run the other way; note: potency is the fitted concentration of half-maximal effect; % of control where 0% means no effect; nearly all actives have a fitted effect of over 45% in size
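p53-null H1299 cells stably carrying temperature-sensitive p53-A138V and a BP100-luciferase reporter were pinned with compounds (4-point, 1:5 series) and held 24 hrs at 37 deg C. Luminescence was read 10 min after detection reagent.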
TSHR antag: blocks TSH signaling through the human TSH receptor; P16473; TSHR-expressing cells, TSH-stimulated cAMP HTRF, 2 h; stronger effect = lower value; activity change, negative = inhibition, % at 11.5 µM; 0.2% of 330,000 active; AID 504810;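 active = activity change below a set negative limit, meaning inhibition stronger than a set level, cut at about -70% in these data; inconclusive = activity change between two set negative limits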; note: % is set by controls: 0 for no effect and ±100 for the full control effect
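Read-out is FRET at 665 nm (cryptate excitation 337 nm) from a cryptate-tagged anti-cAMP antibody, competed by cell cAMP against cAMP-d2. Compounds are tested on freshly harvested TSHR cells challenged with 4nM TSH (EC80) for 2 hours at 37 deg C.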
Active calls of the source: *; i = inactive; u = inconclusive; x = no result given. An excerpt weighted towards active compounds, which were near 0.62% of everything screened. Unless noted, calls come from the whole dose curve.

1) Cc1cc(C)n(C(=O)/C(C#N)=N\Nc2ccccc2[N+](=O)[O-])n1
2) Cc1cc(C)n(C(=O)/C(C#N)=N/Nc2cc(Cl)cc(Cl)c2)n1
3) O=C1c2ccccc2NC(c2cccc(O)c2)N1c1ccccc1 (configuration not stated)
4) O=[N+]([O-])c1ccc(NNC(=S)Nc2ccc(F)cc2)cc1
5) COC(=O)c1nc2n(n1)C(c1cccc(Cl)c1)C1=C(CCCC1=O)N2 (configuration not stated)
6) CCOC(=O)C(C(=O)OCC)N(C#N)c1nc(SC)nc(N(C)C)n1
Screen / compound no.	1	2	3	4	5	6
Rango complex inh	-2%	u	-1%	-4%	1%	0%
pAkt inh	i	i	i	i	i	i
Rango dissoc inh	-10%	-6%	-9%	-30%	-28%	12%
TSHR antag	-12	-82*	-9	-5	-85*	2
p53 reactivation	14%	-1%	-2%	28µM*	-5%	-3%

7) CCOC(=O)C(C(=O)OCC)N(C#N)c1nc(OC)nc(N(C)C)n1
8) O=C(CN1CCSCC1)N/N=C/c1ccccc1F
9) COc1ccc(N=NC2=C(O)CC(C)(C)CC2=O)cc1
10) COc1ccc(N=NC2=C(O)CC(C)(C)CC2=O)c(OC)c1
11) Cc1ccc(CNS(=O)(=O)c2ccc(CN3C(=O)c4cccnc4C3=O)s2)o1
12) Cc1cc(C(=O)N/N=C/c2cc(N=Nc3ccccc3)ccc2O)n[nH]1
Screen / compound no.	7	8	9	10	11	12
Rango complex inh	0%	1%	-3%	52µM*	-3%	0%
pAkt inh	-113%*	-98%*	i	i	i	i
Rango dissoc inh	2%	-3%	6%	15%	-10%	3%
TSHR antag	29	2	-20	-16	-89*	-22
p53 reactivation	9%	5%	u	u	0%	13µM*

13) CCn1c(Cc2ccccc2)nnc1SCC(=O)N1CCCCC1
14) CCOC(=O)NC1(C(F)(F)F)NC(=O)N(c2ccc(F)cc2)C1=O (configuration not stated)
15) CCCCn1nnnc1C(c1ccccc1)N1CCN(c2ccc(F)cc2)CC1 (configuration not stated)
16) Cc1ccc(NC(=O)CSc2nc3ncc(Br)cc3[nH]2)cc1C
17) Cc1cc(C)c(NC(=O)CSc2nc3ncc(Br)cc3[nH]2)c(Cl)c1
18) Cc1ccc(S(=O)(=O)N(C)C)cc1NC(=O)C(C)OC(=O)C1CCC1 (configuration not stated)
Screen / compound no.	13	14	15	16	17	18
Rango complex inh	1%	7%	x	-2%	0%	3%
pAkt inh	-106%*	i	i	i	i	i
Rango dissoc inh	0%	0%	x	7%	9%	0%
TSHR antag	6	11	x	-88*	2	13
p53 reactivation	4%	-2%	x	-10%	-7%	-2%

19) CCC(C(=O)NCc1ccco1)N(C(=O)CNS(=O)(=O)c1ccc(F)cc1)c1ccccc1F (configuration not stated)
20) O=C1CC(C(=O)Nc2cccc3ccccc23)C2(CCCC2)O1 (configuration not stated)
21) CC1(C)CC2(CCO1)OC(=O)CC2C(=O)Nc1cccc2ccccc12 (configuration not stated)
22) Cc1ccccc1-n1c(SC2CCOC2=O)nnc1-c1ccncc1 (configuration not stated)
23) Cc1ccccc1-n1nnnc1SC1CCOC1=O (configuration not stated)
24) CCc1cc(=O)oc2c3c(cc(OCC(=O)NCCCOC)c12)OC(C)(C)CC3
Screen / compound no.	19	20	21	22	23	24
Rango complex inh	0%	0%	-1%	0%	0%	1%
pAkt inh	i	i	-88%*	i	i	i
Rango dissoc inh	9%	-13%	-8%	15%	4%	-14%
TSHR antag	7	-5	14	-10	-88*	-11
p53 reactivation	-3%	-1%	-3%	7%	1%	-5%

25) COc1cc(/C=C/C(=O)OCC(=O)N2CCN(S(=O)(=O)c3ccc(C)cc3C)CC2)ccc1OC(F)F
26) CCOC(=O)C1CCCN(C(=O)c2ccc(OC)cc2)CC1 (configuration not stated)
27) CCOC(=O)C1CCN(C(=O)c2ccc3nc(-c4ccc(OC)cc4)c(-c4ccc(OC)cc4)nc3c2)CC1
28) O=C(c1[nH]c(C(F)(F)F)nc1-c1ccccc1)N1CCOCC1
Screen / compound no.	25	26	27	28
Rango complex inh	0%	x	u	x
pAkt inh	i	i	i	i
Rango dissoc inh	-8%	x	16µM*	x
TSHR antag	x	x	-4	x
p53 reactivation	x	x	-1%	x

Compound profiles (already shown). Screens in order: Rango complex inh	pAkt inh	Rango dissoc inh	TSHR antag	p53 reactivation
`CCOC(=O)C1CCCN(C(=O)c2ccc(OC)cc2)CC1` (configuration not stated) is listed with x	i	x	x	x
`O=C(c1[nH]c(C(F)(F)F)nc1-c1ccccc1)N1CCOCC1` is listed with x	i	x	x	x
`COc1cc(/C=C/C(=O)OCC(=O)N2CCN(S(=O)(=O)c3ccc(C)cc3C)CC2)ccc1OC(F)F` is listed with 0%	i	-8%	x	x
